# Assays:
# The chains behind the UniProt entries cited, without tags or fusion partners.
# UniProt P00533, whole entry: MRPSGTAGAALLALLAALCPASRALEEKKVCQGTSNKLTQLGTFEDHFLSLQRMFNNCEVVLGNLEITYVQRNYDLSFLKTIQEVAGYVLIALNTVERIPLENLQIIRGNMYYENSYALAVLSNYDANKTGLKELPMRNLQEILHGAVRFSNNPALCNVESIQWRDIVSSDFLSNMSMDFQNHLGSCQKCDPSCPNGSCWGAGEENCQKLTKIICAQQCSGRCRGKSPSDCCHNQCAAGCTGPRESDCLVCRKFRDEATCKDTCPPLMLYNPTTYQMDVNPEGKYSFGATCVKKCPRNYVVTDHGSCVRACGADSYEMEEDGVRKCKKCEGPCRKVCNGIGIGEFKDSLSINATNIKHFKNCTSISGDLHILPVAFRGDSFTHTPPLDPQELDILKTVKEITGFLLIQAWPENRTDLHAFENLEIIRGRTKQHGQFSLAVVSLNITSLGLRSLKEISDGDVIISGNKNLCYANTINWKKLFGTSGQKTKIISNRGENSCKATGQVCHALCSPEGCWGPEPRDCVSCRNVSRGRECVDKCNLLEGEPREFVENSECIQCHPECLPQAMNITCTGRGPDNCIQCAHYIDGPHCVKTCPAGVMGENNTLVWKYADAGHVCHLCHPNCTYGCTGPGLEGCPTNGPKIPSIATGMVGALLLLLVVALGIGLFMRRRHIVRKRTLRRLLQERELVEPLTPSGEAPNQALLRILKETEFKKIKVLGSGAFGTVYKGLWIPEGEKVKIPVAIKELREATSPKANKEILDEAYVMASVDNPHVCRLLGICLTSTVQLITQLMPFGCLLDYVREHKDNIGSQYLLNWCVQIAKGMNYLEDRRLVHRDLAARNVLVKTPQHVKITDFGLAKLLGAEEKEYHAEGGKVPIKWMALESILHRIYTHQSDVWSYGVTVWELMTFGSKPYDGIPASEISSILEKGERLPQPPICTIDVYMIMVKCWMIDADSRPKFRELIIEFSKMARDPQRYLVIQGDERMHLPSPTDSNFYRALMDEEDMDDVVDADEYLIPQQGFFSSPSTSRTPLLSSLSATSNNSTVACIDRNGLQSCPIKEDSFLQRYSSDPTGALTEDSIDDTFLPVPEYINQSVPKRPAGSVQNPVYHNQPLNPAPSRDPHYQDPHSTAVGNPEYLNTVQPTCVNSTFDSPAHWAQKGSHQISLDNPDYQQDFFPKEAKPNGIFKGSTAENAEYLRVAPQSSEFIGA
# [1] = molecular target: T1, Epidermal growth factor receptor (Homo sapiens, UniProt P00533);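 on IC50: human A431 cells pretreated 90 min, then EGF stimulated, sandwich ELISA measured decrease in EGF-induced receptor autophosphorylation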;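 on Kd: KINOMEscan competition binding with recombinant partial wild-type human EGFR (residues R669–V1011) produced in bacteria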
# [2] = molecular target: T1, Epidermal growth factor receptor; format: cell-based
smiles,measurement,setting,value
COc1cc2ncnc(Nc3cc(OC)c(OC)c(OC)c3)c2cc1OC,Kd,[1],0.022 µM
same,IC50,[2],5.4 µM

# Reference: ChEMBL document CHEMBL4393671, “Design of a Cyclin G Associated Kinase (GAK)/Epidermal Growth Factor Receptor (EGFR) Inhibitor Set to Interrogate the Relationship of EGFR and GAK in Chordoma” (J Med Chem, 2019)
